Key:
[1] = molecular target: T1, CRF1R (Homo sapiens, UniProt P34998); experiment: CRF1R agonist activation (EC50 / Emax), called comparative CRF binding; assay type: cell-based; settings: read-out: CRF1R Emax
T1 sequence (P34998 24-415): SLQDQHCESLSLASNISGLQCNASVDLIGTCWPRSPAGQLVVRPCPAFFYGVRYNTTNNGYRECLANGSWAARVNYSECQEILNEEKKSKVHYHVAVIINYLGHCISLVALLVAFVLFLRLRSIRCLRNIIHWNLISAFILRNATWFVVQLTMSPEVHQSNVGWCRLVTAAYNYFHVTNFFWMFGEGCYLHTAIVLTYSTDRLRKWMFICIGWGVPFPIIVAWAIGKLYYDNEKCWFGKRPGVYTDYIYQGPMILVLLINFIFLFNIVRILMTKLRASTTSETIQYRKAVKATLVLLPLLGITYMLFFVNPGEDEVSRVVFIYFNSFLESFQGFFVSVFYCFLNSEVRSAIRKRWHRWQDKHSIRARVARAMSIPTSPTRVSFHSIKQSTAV
Procedure, shortened: (§1)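 Peptides are tested on cells bearing CRF1R or CRF2R, full length or as ligand-binding-domain constructs coupled to reporters or G proteins. Activation is scored by cAMP rise, measured in lysates or by CRE-reporter output, against vehicle control.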

[2] = molecular target: T2, CRF2R (Homo sapiens, UniProt Q13324); experiment: CRF2R agonist activation (EC50 / Emax), called comparative CRF binding; assay type: cell-based; settings: read-out: CRF2R Emax
T2 sequence (Q13324 1-411): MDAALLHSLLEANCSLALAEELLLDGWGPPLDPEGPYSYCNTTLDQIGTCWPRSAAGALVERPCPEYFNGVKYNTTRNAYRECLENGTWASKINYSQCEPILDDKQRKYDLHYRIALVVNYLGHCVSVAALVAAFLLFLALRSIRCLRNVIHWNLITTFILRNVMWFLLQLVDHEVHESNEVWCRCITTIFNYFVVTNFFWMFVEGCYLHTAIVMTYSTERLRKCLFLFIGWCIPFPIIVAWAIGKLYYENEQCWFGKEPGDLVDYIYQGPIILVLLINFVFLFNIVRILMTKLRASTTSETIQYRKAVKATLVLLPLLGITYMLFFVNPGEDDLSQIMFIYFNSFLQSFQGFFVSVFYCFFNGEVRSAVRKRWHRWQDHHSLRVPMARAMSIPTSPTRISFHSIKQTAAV
Procedure, shortened: as §1

**Q.** For CC[C@H](C)[C@H](NC(=O)[C@H](CCC(=O)O)NC(=O)[C@@H](NC(=O)[C@H](CCSC)NC(=O)[C@H](CCCCN)NC(=O)[C@H](CCCNC(=N)N)NC(=O)[C@H](CC(C)C)NC(=O)[C@H](CC(C)C)NC(=O)[C@H](CCC(N)=O)NC(=O)[C@H](Cc1ccccc1)NC(=O)[C@@H]1CCCN1C(=O)[C@H](CC(C)C)NC(=O)[C@H](CC(=O)O)NC(=O)[C@@H](NC(=O)[C@H](CO)NC(=O)[C@@H](NC(=O)[C@@H]1CCCN1C(=O)[C@@H]1CCCN1C(=O)CNC(=O)[C@@H]1CCC(=O)N1)[C@@H](C)CC)[C@@H](C)CC)[C@@H](C)CC)C(=O)N[C@@H](CCC(=O)O)C(=O)N[C@@H](CCCCN)C(=O)N[C@@H](CCC(N)=O)C(=O)N[C@@H](CCC(=O)O)C(=O)N[C@@H](CCCCN)C(=O)N[C@@H](CCC(=O)O)C(=O)N[C@@H](CCCCN)C(=O)N[C@@H](CCC(N)=O)C(=O)N[C@@H](CCC(N)=O)C(=O)N[C@@H](C)C(=O)N[C@H](C(=O)N[C@H](C(=O)N[C@@H](CC(N)=O)C(=O)N[C@@H](CCCNC(=N)N)C(=O)N[C@@H](CC(C)C)C(=O)N[C@@H](CC(C)C)C(=O)N[C@@H](CC(C)C)C(=O)N[C@@H](CC(=O)O)C(=O)N[C@H](C(=O)N[C@H](C(N)=O)C(C)C)[C@@H](C)O)[C@@H](C)O)[C@@H](C)O [compound 16], which Emax [1] is on record?
**A.** The Emax was 98%.

**Q.** What about the Emax [2] of the same compound?
**A.** Its Emax is 86%.

**Q.** What does the source list for CC[C@H](C)[C@H](NC(=O)[C@H](CCCNC(=N)N)NC(=O)[C@H](C)NC(=O)[C@H](CC(N)=O)NC(=O)[C@@H](NC(=O)[C@@H](NC(=O)[C@H](C)NC(=O)[C@H](CCC(N)=O)NC(=O)[C@H](CCC(N)=O)NC(=O)[C@H](CCCCN)NC(=O)[C@H](CCC(=O)O)NC(=O)[C@H](CCCCN)NC(=O)[C@H](CCC(=O)O)NC(=O)[C@H](CCC(N)=O)NC(=O)[C@H](CCCCN)NC(=O)[C@H](CCC(=O)O)NC(=O)[C@@H](NC(=O)[C@H](CCC(=O)O)NC(=O)[C@@H](NC(=O)[C@H](CC(C)C)NC(=O)[C@@H](NC(=O)[C@H](CCCNC(=N)N)NC(=O)[C@H](CC(C)C)NC(=O)[C@H](CC(C)C)NC(=O)[C@H](CCC(N)=O)NC(=O)[C@H](Cc1ccccc1)NC(=O)[C@@H]1CCCN1C(=O)[C@@H](NC(=O)[C@H](CC(=O)O)NC(=O)[C@@H](NC(=O)[C@H](CO)NC(=O)[C@@H](NC(=O)[C@@H]1CCCN1C(=O)[C@@H]1CCCN1C(=O)CNC(=O)[C@@H]1CCC(=O)N1)[C@@H](C)CC)[C@@H](C)CC)C(C)C)[C@@H](C)CC)[C@@H](C)CC)[C@@H](C)CC)[C@@H](C)O)[C@@H](C)O)C(=O)N[C@@H](CC(C)C)C(=O)N[C@@H](C)C(=O)N[C@@H](CCCNC(=N)N)C(=O)N[C@H](C(N)=O)C(C)C [compound 171]?
**A.** Emax [1]: 99%; Emax [2]: 100%

**Q.** What does the source list for CC[C@H](C)[C@H](NC(=O)[C@H](CCCNC(=N)N)NC(=O)[C@H](C)NC(=O)[C@H](CC(C)C)NC(=O)[C@H](CC(C)C)NC(=O)[C@H](CCCNC(=N)N)NC(=O)[C@H](C)NC(=O)[C@H](CC(N)=O)NC(=O)[C@H](CC(N)=O)NC(=O)[C@H](C)NC(=O)[C@H](C)NC(=O)[C@H](CCC(N)=O)NC(=O)[C@H](CCC(N)=O)NC(=O)[C@H](CCCCN)NC(=O)[C@H](CCC(=O)O)NC(=O)[C@H](CCCCN)NC(=O)[C@H](CCC(=O)O)NC(=O)[C@H](CCC(N)=O)NC(=O)[C@H](CCCCN)NC(=O)[C@H](CCC(=O)O)NC(=O)[C@@H](NC(=O)[C@H](CCC(=O)O)NC(=O)[C@@H](NC(=O)[C@H](CCSC)NC(=O)[C@H](CCCCN)NC(=O)[C@H](CCCNC(=N)N)NC(=O)[C@H](CC(C)C)NC(=O)[C@H](CC(C)C)NC(=O)[C@@H](NC(=O)[C@@H](NC(=O)[C@@H]1CCCN1C(=O)[C@H](CC(C)C)NC(=O)[C@H](CC(=O)O)NC(=O)[C@@H](NC(=O)[C@H](CO)NC(=O)[C@@H](NC(=O)[C@@H]1CCCN1C(=O)[C@@H]1CCCN1C(=O)CNC(=O)[C@@H]1CCC(=O)N1)[C@@H](C)CC)[C@@H](C)CC)[C@@H](C)CC)[C@@H](C)CC)[C@@H](C)CC)[C@@H](C)CC)C(N)=O [compound 290]?
**A.** Emax [1]: 6.4%; Emax [2]: 100%

**Q.** Which results are given for CC[C@H](C)[C@H](NC(=O)[C@@H](NC(=O)[C@H](CC(=O)O)NC(=O)[C@H](CC(C)C)NC(=O)[C@H](CC(C)C)NC(=O)[C@H](CC(C)C)NC(=O)[C@H](CCCNC(=N)N)NC(=O)[C@H](CC(N)=O)NC(=O)[C@H](CC(N)=O)NC(=O)[C@H](C)NC(=O)[C@H](C)NC(=O)[C@H](CCC(N)=O)NC(=O)[C@H](CCC(N)=O)NC(=O)[C@H](CCCCN)NC(=O)[C@H](CCC(=O)O)NC(=O)[C@H](CCCCN)NC(=O)[C@H](CCC(=O)O)NC(=O)[C@H](CCC(N)=O)NC(=O)[C@H](CCCCN)NC(=O)[C@H](CCC(=O)O)NC(=O)[C@@H](NC(=O)[C@H](CCC(=O)O)NC(=O)[C@@H](NC(=O)[C@@H](NC(=O)[C@H](CCCCN)NC(=O)[C@H](CCCNC(=N)N)NC(=O)[C@H](CC(C)C)NC(=O)[C@H](CC(C)C)NC(=O)[C@H](CCC(N)=O)NC(=O)[C@H](Cc1ccc(O)cc1)NC(=O)[C@@H]1CCCN1C(=O)[C@H](CC(C)C)NC(=O)[C@H](CC(=O)O)NC(=O)[C@@H](NC(=O)[C@H](CO)NC(=O)[C@@H](NC(=O)[C@@H]1CCCN1C(=O)[C@@H]1CCCN1C(=O)CNC(=O)[C@@H]1CCC(=O)N1)[C@@H](C)CC)[C@@H](C)CC)C(C)C)[C@@H](C)CC)[C@@H](C)CC)[C@@H](C)O)C(N)=O [compound 283]?
**A.** Emax [1]: 100%; Emax [2]: 72%

**Q.** How did the Emax [1] turn out when CC[C@H](C)[C@H](NC(=O)[C@@H](NC(=O)[C@H](CC(=O)O)NC(=O)[C@H](CC(C)C)NC(=O)[C@H](CC(C)C)NC(=O)[C@H](CC(C)C)NC(=O)[C@H](CCCNC(=N)N)NC(=O)[C@H](CC(N)=O)NC(=O)[C@H](CC(N)=O)NC(=O)[C@H](C)NC(=O)[C@H](C)NC(=O)[C@H](CCC(N)=O)NC(=O)[C@H](CCC(N)=O)NC(=O)[C@H](CCCCN)NC(=O)[C@H](CCC(=O)O)NC(=O)[C@H](CCCCN)NC(=O)[C@H](CCC(=O)O)NC(=O)[C@H](CCC(N)=O)NC(=O)[C@H](CCCCN)NC(=O)[C@H](CCC(=O)O)NC(=O)[C@@H](NC(=O)[C@H](CCC(=O)O)NC(=O)[C@@H](NC(=O)[C@H](CCSC)NC(=O)[C@H](CCCCN)NC(=O)[C@H](CCCNC(=N)N)NC(=O)[C@H](CC(C)C)NC(=O)[C@H](CC(C)C)NC(=O)[C@H](Cc1c[nH]cn1)NC(=O)[C@@H](NC(=O)[C@@H]1CCCN1C(=O)[C@H](CC(C)C)NC(=O)[C@H](CC(=O)O)NC(=O)[C@@H](NC(=O)[C@H](CO)NC(=O)[C@@H](NC(=O)[C@@H]1CCCN1C(=O)[C@@H]1CCCN1C(=O)CNC(=O)[C@@H]1CCC(=O)N1)[C@@H](C)CC)[C@@H](C)CC)[C@@H](C)CC)[C@@H](C)CC)[C@@H](C)CC)[C@@H](C)O)C(N)=O [compound 77] was run?
**A.** Its Emax is 5%.

**Q.** What about the Emax [2] of the same compound?
**A.** Its Emax is 100%.

**Q.** What does the source list for CC[C@H](C)[C@H](NC(=O)[C@@H](NC(=O)[C@H](CC(=O)O)NC(=O)[C@H](CC(C)C)NC(=O)[C@H](CC(C)C)NC(=O)[C@H](CC(C)C)NC(=O)[C@H](CCCNC(=N)N)NC(=O)[C@H](CC(N)=O)NC(=O)[C@H](CC(N)=O)NC(=O)[C@H](C)NC(=O)[C@H](C)NC(=O)[C@H](CCC(N)=O)NC(=O)[C@H](CCC(N)=O)NC(=O)[C@H](CCCCN)NC(=O)[C@H](CCC(=O)O)NC(=O)[C@H](CCCCN)NC(=O)[C@H](CCC(=O)O)NC(=O)[C@H](CCC(N)=O)NC(=O)[C@H](CCCCN)NC(=O)[C@H](CCC(=O)O)NC(=O)[C@@H](NC(=O)[C@H](CCC(=O)O)NC(=O)[C@@H](NC(=O)[C@H](CCSC)NC(=O)[C@H](CCCCN)NC(=O)[C@H](CCCNC(=N)N)NC(=O)[C@H](CC(C)C)NC(=O)[C@H](CC(C)C)NC(=O)CNC(=O)[C@H](Cc1ccccc1)NC(=O)[C@@H]1CCCN1C(=O)[C@H](CC(C)C)NC(=O)[C@H](CC(=O)O)NC(=O)[C@@H](NC(=O)[C@H](CO)NC(=O)[C@@H](NC(=O)[C@@H]1CCCN1C(=O)[C@@H]1CCCN1C(=O)CNC(=O)[C@@H]1CCC(=O)N1)[C@@H](C)CC)[C@@H](C)CC)[C@@H](C)CC)[C@@H](C)CC)[C@@H](C)O)C(N)=O [compound 68]?
**A.** Emax [1]: 33%; Emax [2]: 74%

**Q.** CC[C@H](C)[C@H](NC(=O)[C@@H](NC(=O)[C@H](CC(=O)O)NC(=O)[C@H](CC(C)C)NC(=O)[C@H](CC(C)C)NC(=O)[C@H](CC(C)C)NC(=O)[C@H](CCCNC(=N)N)NC(=O)[C@H](CC(N)=O)NC(=O)[C@H](CC(N)=O)NC(=O)[C@H](C)NC(=O)[C@H](C)NC(=O)[C@H](CCC(N)=O)NC(=O)[C@H](CCC(N)=O)NC(=O)[C@H](CCCCN)NC(=O)[C@H](CCC(=O)O)NC(=O)[C@H](CCCCN)NC(=O)[C@H](CCC(=O)O)NC(=O)[C@H](CCC(N)=O)NC(=O)[C@H](CCCCN)NC(=O)[C@H](CCC(=O)O)NC(=O)[C@@H](NC(=O)[C@H](CCC(=O)O)NC(=O)[C@@H](NC(=O)[C@H](CC(C)C)NC(=O)[C@@H](NC(=O)[C@H](CCCNC(=N)N)NC(=O)[C@H](CC(C)C)NC(=O)[C@H](CC(C)C)NC(=O)[C@H](CCC(N)=O)NC(=O)[C@H](Cc1ccccc1)NC(=O)[C@@H]1CCCN1C(=O)[C@H](CC(C)C)NC(=O)[C@H](CC(=O)O)NC(=O)[C@@H](NC(=O)[C@H](CO)NC(=O)[C@@H](NC(=O)[C@@H]1CCCN1C(=O)[C@@H]1CCCN1C(=O)CNC(=O)[C@@H]1CCC(=O)N1)[C@@H](C)CC)[C@@H](C)CC)[C@@H](C)CC)[C@@H](C)CC)[C@@H](C)CC)[C@@H](C)O)C(N)=O [compound 255] was tested. Which Emax [1] did it give?
**A.** The Emax was 84%.

**Q.** And the Emax [2]?
**A.** Its Emax is 100%.
